Data published in patent US20100093643A1 (priority 2006, published 2010).

Tested on: peripheral opiate receptors, guinea pig ileum (GPI, predominantly μ-type of opioid receptor)

With `CN1CC[C@]23c4c5ccc(O)c4O[C@H]2[C@@H](O)C=C[C@H]3[C@H]1C5` [Morphine, reference compound] the GPIrel/MVDrel was 107.
